# Apparent affinities of Ab-95 variants for a coronavirus HR2 peptide

From the AlphaSeq antibody data of Engelhart et al. 2022 (doi:10.1038/s41597-022-01779-4), copy in the FLAb collection.

Binding partner: SARS-CoV-2 spike HR2 peptide, sequence PDVDLGDISGINAS.

Each scFv is VH, a (GGGGS)3 linker, VL, as in the parent Ab-95, and differs from it in the CDRs of the light chain only.
VH: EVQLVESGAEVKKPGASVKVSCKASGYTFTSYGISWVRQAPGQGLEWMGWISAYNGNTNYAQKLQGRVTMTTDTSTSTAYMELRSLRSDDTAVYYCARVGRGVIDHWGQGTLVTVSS
VL: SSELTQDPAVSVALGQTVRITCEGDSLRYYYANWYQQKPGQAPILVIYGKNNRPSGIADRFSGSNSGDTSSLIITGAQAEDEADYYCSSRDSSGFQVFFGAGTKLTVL

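The starting antibody came from a phage panning campaign against this peptide. In library AAYL52, one, two or three CDR residues were substituted; doubles and triples were drawn at random. The scFvs were displayed on barcoded MATa yeast, the peptide on MATalpha yeast. After mating in shaken culture at 30 °C for 16 h, diploids were selected and their barcode pairs sequenced. Each replicate has its own calibration line, from reference interactions of the BCL2 family. Each pool was mated in three replicate cultures.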

Positions count from residue 1 of the parent VL; E23D puts D in place of E.
All variants listed here change E23 of the VL, counted from its first residue.
Numbers give log10(Kd / nM), so 0 is 1 nM and 3 is 1 µM. Smaller is tighter.
Where no diploid with the target was found in that replicate, the entry reads "nd": below detection, most likely a poor binder, though not proof of it.
Nonspecific signal, from three strains lacking the peptide, appeared in 28% of pairings of library AAYL52, centred on 3.91 (5% of these signals below 2.90); values are not corrected for it.

The variant E23D N33R N51W showed nd, nd, nd. The variant E23D A32P F98A showed 2.63, 2.49, 3.08. For E23C R53V S55D, the assay gave 3.37, nd, nd. The variant E23L S88I gave 2.87, nd, 3.32. The variant E23C D25T S93A showed 3.63, 3.08, 2.70. For E23T R53K R90E, the assay gave 3.46, 2.12, 2.92.

The variant E23A D25P S93A gave 2.78, 2.72, 2.23. The variant E23H G24S G49V showed 4.77, 6.21, nd. The variant E23G S55L V97C showed 5.45, 4.00, nd. The variant E23T Y31W K50T gave 3.05, 2.94, 2.46. The variant E23G G49I S92A showed 4.14, nd, nd. The variant E23P N33G G94Y gave 2.79, 2.93, 3.19.

The variant E23H G24Q N52C showed 3.61, 3.51, nd. The variant E23P K50E S92D showed 3.15, 2.18, 1.91. The variant E23T G49N N52Y showed 2.96, 2.92, 3.74. The variant E23W A32K F95D showed 4.62, 5.06, nd. For E23A F95D, the assay gave 3.31, 3.10, 3.19. For E23I Y30S Q96D, the assay gave 1.49, 1.46, 0.84.

The variant E23T N51T P54T gave 3.42, 3.49, 3.07. The variant E23P F98Q showed nd, 2.94, nd. With E23T R90S D91C the result was 3.50, 4.70, nd. For E23C R28N F98P, the assay gave 1.95, 1.93, 1.57. The variant E23G G24D S55R showed nd, 3.47, 2.92. The variant E23W Y31A F95A showed 2.06, 2.03, 1.83.

With E23S R28K N52F the result was 1.93, 1.87, 1.77. The variant E23M G24H S93A gave 2.98, 2.96, 2.61. For E23C D25A S26N, the assay gave 2.93, 3.46, 3.67. The variant E23P N33S G49H gave 5.16, 5.38, nd. With E23K G24E Y31L the result was 2.60, 2.60, 2.68. The variant E23G N51I S88L showed nd, nd, 3.09.

For E23P N51C P54Y, the assay gave 5.11, nd, nd. With E23K A32K S92K the result was 4.12, 4.04, nd. For E23S S55Q G94E, the assay gave 2.31, 2.32, 2.08. With E23R G94P the result was 3.08, 2.67, 1.83. The variant E23V N52Y S55G gave 2.30, 2.45, 2.22. The variant E23H Y31H showed 1.55, 1.51, 1.16.

The variant E23H N52S V97A showed nd, 2.95, nd. The variant E23S Y31R R90W showed 4.11, nd, 3.41. The variant E23Y S55N S89T showed 2.12, 1.97, 1.88. The variant E23I R28E D91E gave 3.21, 2.92, nd. For E23C S26N K50S, the assay gave 4.85, nd, nd. The variant E23K D25Y S26H gave 2.28, 2.32, 2.14.

The variant E23M A32G G94K showed nd, nd, nd. For E23R K50E P54Q, the assay gave 1.69, 1.81, 1.26. For E23S Y30A Y31F, the assay gave 0.99, 0.87, 0.29. With E23K G24I D25Q the result was 4.14, 4.25, 3.03. With E23P N51G S92T the result was nd, nd, nd. The variant E23V Y31E N52I gave 1.38, 1.36, 0.78.

The variant E23R Y29E S88N gave 1.96, 1.58, 1.43.

Excerpt, the final 3 entries:

E23P N51G S92T: nd, nd, nd.
E23V Y31E N52I: 1.38, 1.36, 0.78.
E23R Y29E S88N: 1.96, 1.58, 1.43.